Assay results published in publication doi:10.1101/2024.09.30.615802 (bioRxiv, 2024).

Target: major birch allergen Bet v1 (Betula pendula, isoform Bet v 1-A (Bet …, UniProt P15494))
Test: SPR

Binder | binding result
REGN5713 (antibody format) (antibody, V domains shown) VH: QVQLQESGPGLVKPSETLSLTCSVSGGSITNYFWTWIRQSPGKGLEWIGYIYYSGGTNYNPSLKSRVTISIDTSKNQFSLNMNSVTAADTAVYYCAGSYYYGVDVWGQGTTVTVSS VL: EIVLTQSPATLSLSPGERATLSCRASQSIKSFLAWYRQKPGQAPRLLIYDASNRPTGIPARFSGSGSGTDFTLTINSLESEDFAVYFCQQRNNWPFTFGPGTKVDIK | binds
REGN5714 (Fab format) (Fab, V domains shown) VH: EVQLVESGGDLVQPGGSLRLSCAASGFTFSSYEMNWVRQAPGKGLEWVSFISDSSSNIYYADSVKGRFTISRDNAKKSLYLQMTSLRAEDTAVYYCAREAIGSTSFDNWGQGTLVTVSS VL: EIVMTQSPATLSVSPGERATLSCRASQSVSSSLAWYQQKPGQAPRRLIYSASTRATGIPARFSGSGSGTEFTLTISSLQSEDFAIYYCHQYNNWPLTFGGGTKVEIK | binds
